Screens (PubChem)
This is a sample that favours compounds with a hit; in the whole collection about 1.5% have one here.
Casp6 inh – blocks human caspase-6 cleavage activity; purified caspase-6, Z-VEID-R110 cleavage fluorescence; inhibition, % at 12.5 µM; hit rate 0.53% among 350,000; P55212; AID 686996;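 active means mean inhibition across replicates at least about 35%, with every replicate also reaching that limit, limit read from the data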;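 further: 0% = median of neutral control wells and 100% = no fluorescence left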
PglD DTNB – blocks C. jejuni PglD acetyltransferase activity. purified PglD enzyme, DTNB colorimetric CoA detection. inhibition, % at 12.5 µM. hit rate 0.098% among 360,000. AID 602405; in the data active means inhibition above about 16%, passing the limit was not always enough
RAD52 anneal inh – inhibitors of human RAD52 DNA annealing | AID 651710 | hit rate 0.46% among 360,000 | recombinant RAD52 DNA annealing, FRET fluorescence | inhibition, % at 18.7 µM;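 active means every replicate showing at least 50% inhibition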
Yeast UUG start-1 – modulators of yeast start codon fidelity, primary screen, whole organism, S. cerevisiae, single point, plate reader; activity score, % at 18.7 µM; actives 0.13% (n = 350,000); S. cerevisiae UUG-firefly luciferase reporter, luminescence/redox ratio;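 active = replicate mean at a twofold rise or more, about +100% in these data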;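 also: firefly luciferase made from a UUG start codon reports start codon fidelity; reporter light over untreated wells divided by growth signal over untreated wells; some hits fall short of that in this replicate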
GSIS activator – GLuc luminescence reporter in INS-1E cells, primary screen for activators of glucose-dependent secretion of insulin | INS-1E GLuc reporter insulin secretion, 2-3 h | activation, % at 16.6 µM | hit rate 0.61% among 370,000 | AID 743287;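 active means lowest replicate activation of at least 40%, so every replicate reaches that level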;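 further: 0% = median of neutral control wells and 100% = median of IBMX positive control wells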
RAD54 branch – RAD54 (human) branch migration inhibition | hit rate 0.14% among 360,000 | RAD54 Holliday junction branch migration, FAM/BHQ fluorescence | Q92698 | inhibition, % at 10.4 µM | AID 602329;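 active means mean normalized replicate activity at least 40 and at least half of replicates scoring 40 or more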;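 further: 0% = median of neutral control wells and 100% = median of positive control wells; inhibitors cause a drop in the FAM fluorescence signal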
Yeast UUG start-2 – alters UUG start codon use in yeast. shares compounds with Yeast UUG start-1. S. cerevisiae UUG-start firefly luciferase, luminescence, 4 h; 100% means double the DMSO signal. activation, % at 38 µM. 540 tested, under 10 active. AID 652061;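 active means signal increase whose fitted curve reaches an absolute level of 40 at a concentration under 10 µM; inactive means activity opposite to the expected increase, or the rest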
Numbers without * were called inactive; i = inactive; . = not tested or not shown.

1. O=C1Nc2ccc([N+](=O)[O-])cc2OC1CCN1CCN(Cc2ccccc2)CC1 (configuration not stated)
2. Cc1nc(Br)c(Br)c(C)c1Br
3. CCS(=O)(=O)Nc1ccc2c(c1)C(=O)N(C)[C@@H]1CC[C@H](CC(=O)NCCCN3CCOCC3)O[C@@H]1CO2
4. C[C@@H]1CN([C@H](C)CO)C(=O)c2cc(NC(=O)Nc3ccc(C(F)(F)F)cc3)ccc2O[C@@H]1CN(C)S(=O)(=O)c1cccs1
5. C#CCOCCOCCOCCNc1nc(N2CCN(C(=O)[C@H](CC(N)=O)n3cc(C(N)[C@H](C)CC)nn3)CC2)nc(N2CCN(C(=O)[C@H](CC(N)=O)n3cc(C(N)[C@@H](C)CC)nn3)CC2)n1 (some centres not stated)
6. O=C(Cc1cccc2ccccc12)NCC(=O)N1CCN(Cc2cccc(C(F)(F)F)c2)CC1
7. O=C(Cc1cccc2ccccc12)NCC(=O)N1CCN(CC(=O)Nc2ccc(F)cc2)CC1
8. Cc1cc[n+](C2=C([O-])c3ccccc3C(=O)/C2=N\S(=O)(=O)c2cccs2)cc1C
9. Cc1cc(C)c[n+](C2=C([O-])c3ccccc3C(=O)/C2=N\S(=O)(=O)c2cccs2)c1
10. O=C(NC1CCCCC1)C(c1ccncc1)N(Cc1ccc(F)cc1)C(=O)c1ccccn1 (configuration not stated)

| Compound | 1 | 2 | 3 | 4 | 5 | 6 | 7 | 8 | 9 | 10 |
| --- | --- | --- | --- | --- | --- | --- | --- | --- | --- | --- |
| Casp6 inh | 0 | -3 | -2 | . | -22 | -9 | 8 | 5 | 11 | 4 |
| PglD DTNB | . | -1 | 1 | . | -2 | . | -7 | -2 | . | 5 |
| RAD52 anneal inh | -50 | -9 | 2 | . | 2 | -1 | -32 | -10 | -21 | -6 |
| Yeast UUG start-1 | . | -2 | -12 | -4 | 108* | 116* | -15 | 446* | . | 2 |
| GSIS activator | -11 | 2 | -1 | -26 | 6 | -10 | -7 | -8 | -3 | 5 |
| RAD54 branch | . | -11 | -5 | . | -23 | -10 | -4 | -4 | . | -6 |
| Yeast UUG start-2 | 8 | . | . | . | -1 | 12 | . | 0 | . | . |

11. CN(C)CCCNc1ncnc2c1cnn2-c1ccccc1
12. C[C@H]1CN([C@@H](C)CO)S(=O)(=O)c2ccc(-c3cccc(C(=O)N(C)C)c3)cc2O[C@@H]1CN(C)C(=O)Nc1ccc(F)cc1
13. CC(=O)N(C)C[C@@H]1Oc2cc(Br)ccc2S(=O)(=O)N([C@H](C)CO)C[C@@H]1C
14. CC(=O)N(C)C[C@@H]1Oc2cc(-c3cccc(C#N)c3)ccc2S(=O)(=O)N([C@H](C)CO)C[C@H]1C
15. CC(=O)N(C)C[C@@H]1Oc2cc(Br)ccc2S(=O)(=O)N([C@@H](C)CO)C[C@@H]1C
16. C[C@H]1CN([C@@H](C)CO)S(=O)(=O)c2ccc(-c3ccccc3)cc2O[C@H]1CN(C)C(=O)CN(C)C
17. C[C@H](CO)N1C[C@H](C)[C@H](CN(C)C(=O)CN(C)C)Oc2cc(-c3ccccc3)ccc2S1(=O)=O
18. Cc1ncc([N+](=O)[O-])n1CC(=O)Nc1ccc(F)c(F)c1
19. COc1ccc(C(=O)N(NC(=O)Oc2ccccc2)C(C)(C)C)cc1
20. COc1cccc(-c2ccc3c(c2)O[C@@H](CN(C)Cc2ccncc2)[C@@H](C)CN([C@H](C)CO)S3(=O)=O)c1

| Compound | 11 | 12 | 13 | 14 | 15 | 16 | 17 | 18 | 19 | 20 |
| --- | --- | --- | --- | --- | --- | --- | --- | --- | --- | --- |
| Casp6 inh | . | 0 | 1 | 1 | -1 | -1 | 1 | -1 | . | -1 |
| PglD DTNB | 2 | 3 | -2 | 0 | -5 | 8 | 3 | -1 | -4 | 0 |
| RAD52 anneal inh | . | 16 | -8 | 3 | 2 | 27 | 17 | -14 | . | -15 |
| Yeast UUG start-1 | -4 | 111* | -6 | 66* | 63* | 3 | 35* | -5 | -13 | 166* |
| GSIS activator | . | -15 | 2 | 11 | 15 | -2 | 6 | 16 | 18 | -16 |
| RAD54 branch | 2 | 0 | 2 | 3 | -10 | 13 | 2 | 3 | 5 | -15 |
| Yeast UUG start-2 | . | i | . | i | i | . | i | . | . | i |

21. O=C(NCCCN1CCOCC1)C(=O)NCC1OCCN1S(=O)(=O)c1cc(F)ccc1F (configuration not stated)
22. O=C(NCCN1CCOCC1)C(=O)NCC1OCCCN1S(=O)(=O)c1cc(F)ccc1F (configuration not stated)
23. CSc1ccccc1C(=O)NCCSc1ccccc1
24. CCC1=C(OC(=O)c2ccccc2)C(C)(C)C(c2ccccc2)OC1=O (configuration not stated)
25. CC1(C)C(=O)OC(c2ccccc2)C(C)(C)C1=O (configuration not stated)
26. Cc1cc(C)cc(N=C2NC(=O)CS2)c1
27. O=S(=O)(NC1=NCCCCC1)c1ccccc1Cl
28. CN(C[C@H]1[C@H](c2ccccc2)[C@@H](CO)N1C(=O)c1ccccc1)C(=O)C1CC1
29. CN(C[C@@H]1[C@H](c2ccccc2)[C@H](CO)N1C(=O)c1ccccc1)C(=O)C1CC1
30. C=CC[C@H](OC(=O)Nc1ccc(SC)cc1)c1ccc(OCCO)cc1

| Compound | 21 | 22 | 23 | 24 | 25 | 26 | 27 | 28 | 29 | 30 |
| --- | --- | --- | --- | --- | --- | --- | --- | --- | --- | --- |
| Casp6 inh | -50 | -2 | . | . | 0 | -3 | 3 | -1 | 0 | 0 |
| PglD DTNB | -1 | 0 | 3 | 8 | 3 | -2 | 0 | 2 | 1 | 0 |
| RAD52 anneal inh | 11 | -19 | . | . | -6 | 3 | 3 | 2 | 13 | 8 |
| Yeast UUG start-1 | -9 | 172* | -11 | 105* | -11 | 3 | 446* | 156* | 26 | -1 |
| GSIS activator | -1 | 11 | 19 | . | 5 | -2 | 22 | 7 | 5 | . |
| RAD54 branch | -5 | -2 | 3 | -2 | -1 | 3 | -8 | -2 | 6 | 4 |
| Yeast UUG start-2 | . | -2 | . | 9 | . | . | -2 | i | . | . |

The closing 3 records of the part above lead into the next.
28. CN(C[C@H]1[C@H](c2ccccc2)[C@@H](CO)N1C(=O)c1ccccc1)C(=O)C1CC1
29. CN(C[C@@H]1[C@H](c2ccccc2)[C@H](CO)N1C(=O)c1ccccc1)C(=O)C1CC1
30. C=CC[C@H](OC(=O)Nc1ccc(SC)cc1)c1ccc(OCCO)cc1
31. COc1ccc([C@@H](OC(=O)Nc2ccc(SC)cc2)[C@@H](CCO)OC)cc1O
32. COc1cccc(-c2ccc3c(c2)[C@H]2[C@H](CCN2C(=O)Cc2ccccc2)[C@H](CO)N3)c1
33. CC(C)C(NS(=O)(=O)c1ccc2c(c1)oc(=O)n2C)C(=O)N1CCN(c2ccccc2F)CC1 (configuration not stated)
34. Cc1cc(C)c(C#N)c(SCc2ccccc2C)n1
35. Cc1c(Cl)cccc1N1C(=O)CC(NNC(=O)c2cccs2)C1=O (configuration not stated)
36. Cc1ccc(C(=O)c2cccc(N)c2)cc1C
37. NCCCC[C@@H]1NC(=O)[C@H](CCC(=O)O)NC(=O)c2cc([N+](=O)[O-])cc(I)c2SC[C@@H](C(=O)NCC(N)=O)NC1=O
38. COc1cc(S(=O)(=O)N2CCOCC2)ccc1NC(=O)CN1c2cccc3cccc(c23)S1(=O)=O
39. CC(=O)NCc1nc2ccccc2n1Cc1ccccc1F
40. CC(=O)NCCCc1nc2ccccc2n1Cc1ccccc1F
41. Cc1ccc(C)c(N2C(=N)S/C(=C\c3ccc(-c4ccccc4C(=O)O)o3)C2=O)c1

| Compound | 28 | 29 | 30 | 31 | 32 | 33 | 34 | 35 | 36 | 37 | 38 | 39 | 40 | 41 |
| --- | --- | --- | --- | --- | --- | --- | --- | --- | --- | --- | --- | --- | --- | --- |
| Casp6 inh | -1 | 0 | 0 | 3 | -1 | -1 | . | 2 | 0 | -3 | -3 | . | 2 | 37* |
| PglD DTNB | 2 | 1 | 0 | -2 | 5 | -2 | . | 5 | -6 | 5 | 1 | 0 | -2 | 1 |
| RAD52 anneal inh | 2 | 13 | 8 | 10 | -99 | -9 | . | -19 | -25 | -15 | -22 | . | -4 | -84 |
| Yeast UUG start-1 | 156* | 26 | -1 | 151* | 1 | -13 | . | 647* | -28 | 119* | -7 | -21 | 174* | 113* |
| GSIS activator | 7 | 5 | . | . | 23 | -5 | 2 | -11 | 13 | 5 | 11 | . | 20 | -14 |
| RAD54 branch | -2 | 6 | 4 | -13 | -9 | -7 | . | 7 | 3 | 3 | 0 | -2 | -6 | -12 |
| Yeast UUG start-2 | i | . | . | i | . | . | . | -8 | . | 10 | . | . | -4 | -4 |
